An excerpt weighted towards active compounds, which were near 16% of everything screened.
TDP1 inh – blocks human tyrosyl-DNA phosphodiesterase 1; Potency, µM (top dose mostly 130 µM), inactives show at the highest dose activity change, negative = inhibition, most hits filed as inhibitors; recombinant TDP1, AlphaScreen DNA substrate cleavage; Q9NUW8; 350,000 tested, 0.28% active; AID 485290; note: potency is the fitted concentration of half-maximal effect; % is set by controls: 0 for no effect and ±100 for the full control effect; nearly all actives have a fitted effect of over 40% in size
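Compounds were preincubated with Tdp1 (1 nM final) for 15 min at room temperature before substrate (15 nM final) started a 5 min reaction; beads (10 ug/ml final) were then added for 10 min before AlphaScreen detection.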
uPA surface inh – inhibitors of cell surface uPA generation | Potency, µM (highest dose often 38.3 µM), without a hit: at the highest dose activity change, negative = inhibition, usual class: inhibitors | 330,000 tested, 0.31% active | cell surface uPA generation assay, qHTS; active = well fitted inhibition curve with a large enough effect; inconclusive = small, poorly fitted or top-dose-only effect; inactive = no such curve, though single readings can be large or run the other way; tested in mouse RAW 264.7 cells; note: potency is the fitted concentration of half-maximal effect; % is set by controls: 0 for no effect and ±100 for the full control effect; nearly all actives have a fitted effect of over 55% in size
miR-21 reporter – miR-21 reporter, rising signal. HeLa miR-21 FLuc reporter, luciferase, 48 h. Potency, µM (titrated, usually from 38.3 µM), without a hit: at the top dose reporter change, positive = more light. 340,000 tested, under 10 active. AID 2288; active = well fitted rising curve with a large enough effect; inconclusive = small, poorly fitted or top-dose-only effect; inactive = no such curve, though single readings can be large or run the other way;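 also: % of control where 0% means no effect; miR-21 action dims this reporter so a rising signal means less miR-21 action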
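Luminescence from a firefly luciferase reporter carrying a miR-21 binding site downstream, stably expressed under a CMV promoter in HeLa cells that make miR-21 endogenously, reports miRNA modulation after 48 h compound exposure up to approximately 40uM final.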
DT40 TDP1 no CPT – qHTS for Inhibitors of human tyrosyl-DNA phosphodiesterase 1 (TDP1): qHTS in cells in absence of CPT | DT40 Tdp1-/- hTDP1 cells, no CPT, ATP luminescence, 48 h | Potency, µM (series often up to 46.2 µM), inactives show top-dose activity change, negative = growth inhibition, actives largely listed as inhibitors | 420,000 tested, 15% active; note: potency is the fitted concentration of half-maximal effect; % is set by controls: 0 for no effect and ±100 for the full control effect; nearly all actives have a fitted effect of over 55% in size
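No-CPT arm: Tdp1-/-;hTDP1 DT40 cells (400/well) plus compounds, incubated ≥48 hr at 37 °C. Readout CellTiter-Glo luminescence.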
DT40 TDP1 CPT – growth inhibition of DT40 Tdp1-/-;hTDP1 cells with camptothecin (screen for TDP1 inhibitors) | chicken DT40 Tdp1-/-;hTDP1 cells + 20 nM CPT, ATP luminescence, 48 h | Potency, µM (doses to about 46.2 µM), for the others: at the highest dose activity change, negative = growth inhibition, actives largely listed as inhibitors | 420,000 tested, 12% active | AID 686979; note: potency is the fitted concentration of half-maximal effect; % is set by controls: 0 for no effect and ±100 for the full control effect; nearly all actives have a fitted effect of over 55% in size
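Chicken DT40 Tdp1-/- cells complemented with human TDP1, 400 cells/well, exposed to compounds plus 20 nM camptothecin for at least 48 h at 37 C; viability read as ATP content by CellTiter-Glo luminescence.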
Active calls of the source: *; ? = inconclusive; nt = not tested or not shown. Unless noted, calls come from the whole dose curve; as a rule, active = well fitted curve in the direction sought with a large enough effect; inconclusive = small, poorly fitted or top-dose-only effect, or another doubt; inactive = no such curve, though single readings can be large; an effect the other way counts as inactive or inconclusive.

Key to letters – A = TDP1 inh; B = uPA surface inh; C = miR-21 reporter; D = DT40 TDP1 no CPT; E = DT40 TDP1 CPT
> Cc1ccc(-n2nc3c(=O)n(CCCC(=O)NCc4ccccc4F)nc(C)c3c2C)cc1
  A = 4.8%; B = 3.8%; C = -2.0%; D = ?; E = ?

> Cc1ccc(-c2nn(-c3cccc(F)c3)cc2CN2CCN(c3ccccn3)CC2)o1
  A = 4.8%; B = -3.5%; C = 16.3%; D = 23.1µM*; E = ?

> CC(=O)N1CCOc2cc(S(=O)(=O)Nc3c(C)cccc3C(C)C)c(Cl)cc21
  A = 8.91µM*; B = nt; C = -0.9%; D = ?; E = ?

> COc1cccc(NS(=O)(=O)c2cc3c(cc2C)N(C(C)=O)CCO3)c1
  A = nt; B = -11.3%; C = -3.2%; D = ?; E = ?

> Cc1cc2c(cc1S(=O)(=O)Nc1cccc(Cl)c1C)OCCN2C
  A = -5.2%; B = nt; C = -5.7%; D = 18.4µM*; E = ?

> CCOc1ccc(NS(=O)(=O)c2cc3c(cc2C)N(C)CCO3)cc1
  A = nt; B = -14.3%; C = 9.2%; D = 20.6µM*; E = 20.6µM*

> CCCOC(=O)c1cccc(NC(=O)c2cccnc2)c1
  A = 4.0%; B = -1.9%; C = -9.1%; D = 5.8µM*; E = 9.2µM*

> O=C(Nc1ccc2nn(-c3ccccc3)nc2c1)c1cccnc1
  A = 5.7%; B = 18.6%; C = -31.3%; D = 16.4µM*; E = ?

> CCCOC(=O)c1cccc(Nc2nc(-c3cccnc3)nc3ccccc23)c1
  A = 2.7%; B = -13.3%; C = 22.8%; D = 3.26µM*; E = 9.2µM*

> CCOC(=O)c1cccc(Nc2ncnc3ccccc23)c1
  A = 7.3%; B = -8.8%; C = -15.6%; D = 13µM*; E = ?

> O=C(O)c1cccc(Nc2nc(-c3ccccc3)nc3ccccc23)c1
  A = nt; B = -2.9%; C = -5.4%; D = -21.1%; E = 6.9%

> CN(CC(=O)NCc1ccccn1)S(=O)(=O)c1cc(Cl)ccc1Cl
  A = nt; B = 1.0%; C = nt; D = -8.1%; E = -24.8%

> Cc1cccc(NC(=O)c2ccc3c(c2)C(=O)N(Cc2cccnc2)C3=O)c1C
  A = 0.6%; B = 8.7%; C = -4.2%; D = 3.3%; E = -4.8%

> CC(C)(C)C(=O)OCC(=O)C1CCC2C3CCC4=CC(=O)CCC4(C)C3CCC12C (stereo not given)
  A = 6.1%; B = nt; C = nt; D = nt; E = nt

> O=[N+]([O-])c1cc(-n2cccc2)ccc1N1CCOCC1
  A = 11.0%; B = 2.2%; C = -25.8%; D = ?; E = 4.8%

Compounds above that contain fluorine:
Key to letters – A = TDP1 inh; B = uPA surface inh; C = miR-21 reporter; D = DT40 TDP1 no CPT; E = DT40 TDP1 CPT
> Cc1ccc(-n2nc3c(=O)n(CCCC(=O)NCc4ccccc4F)nc(C)c3c2C)cc1
  A = 4.8%; B = 3.8%; C = -2.0%; D = ?; E = ?

> Cc1ccc(-c2nn(-c3cccc(F)c3)cc2CN2CCN(c3ccccn3)CC2)o1
  A = 4.8%; B = -3.5%; C = 16.3%; D = 23.1µM*; E = ?

Next part.
Key to letters – A = TDP1 inh; B = uPA surface inh; C = miR-21 reporter; D = DT40 TDP1 no CPT; E = DT40 TDP1 CPT
> Cc1ccc(C)n1-c1ccc(N2CCOCC2)c([N+](=O)[O-])c1
  A = 10.7%; B = ?; C = -7.7%; D = 14.6µM*; E = ?

> Cc1cc(C=O)c(C)n1-c1ccc(N2CCOCC2)c([N+](=O)[O-])c1
  A = 5.3%; B = 4.8%; C = 1.4%; D = ?; E = ?

> Cc1cc(C=O)c(C)n1-c1ccc(N2CCCC2)c([N+](=O)[O-])c1
  A = 6.0%; B = -3.0%; C = -3.0%; D = 25.9µM*; E = ?

> CCCNC(=O)C1CCN(c2cc(-c3ccccc3)nc3ncnn23)CC1
  A = -3.6%; B = 3.1%; C = 0.3%; D = -17.4%; E = ?

> NNC(=O)COc1cccc(Oc2ccccc2)c1
  A = 5.0%; B = 0.2%; C = -4.6%; D = 18.4µM*; E = ?

> Nc1nc(Sc2c([N+](=O)[O-])cc(C(F)(F)F)cc2[N+](=O)[O-])n[nH]1
  A = 0.0%; B = -8.5%; C = ?; D = 20.6µM*; E = 7.31µM*

> Nc1nc(Sc2ccc(C(F)(F)F)cc2[N+](=O)[O-])n[nH]1
  A = 3.9%; B = 0.2%; C = 0.9%; D = -17.5%; E = -26.5%

> Cc1c(F)cccc1NS(=O)(=O)c1ccc2c(c1)c(=O)n(C)c(=O)n2C
  A = 6.3%; B = -1.9%; C = 11.4%; D = 14.6µM*; E = ?

> Cc1c(F)cccc1NS(=O)(=O)c1ccc2c(c1)n(C)c(=O)c(=O)n2C
  A = 4.3%; B = -1.1%; C = -0.6%; D = -26.3%; E = -8.2%

> Cc1cccc(NS(=O)(=O)c2ccc3c(c2)n(C)c(=O)n3C)c1C
  A = 2.3%; B = nt; C = 5.8%; D = ?; E = 23.1µM*

> Nc1ncnc2c(C3OC(CO)C(O)C3O)c[nH]c12 (stereo not given)
  A = nt; B = -11.2%; C = nt; D = 0.146µM*; E = 0.164µM*

> OC(c1cc(C(F)(F)F)nc2c(Cl)cc(Cl)cc12)C1CCCCN1 (stereo not given)
  A = 5.1%; B = 2.3%; C = ?; D = ?; E = 18.4µM*

> OC(c1cc(-c2ccc(Cl)cc2)nc2ccccc12)C1CCCCN1 (stereo not given)
  A = 2.5%; B = -7.7%; C = ?; D = 25.9µM*; E = 23.1µM*

> O=c1c2cc(Cl)cc(Cl)c2nc2n1CCC2
  A = 1.8%; B = -7.4%; C = 2.3%; D = -3.9%; E = -4.3%

Source: PubChem BioAssay
